This is a selection: effects in other tests are not listed, and their absence says nothing.
Columns and labels:
spleen cells = assay: Spontaneous proliferation of spleen cells (3H-thymidin capture); type: cell-based, murine; settings: 72 hrs
thymus cells = assay: Spontaneous proliferation of thymus cells (3H-thymidin capture); type: cell-based, murine; settings: 72 hrs
[1] = test system: spleen cells stimulated with LPS; assay: Proliferation of spleen cells stimulated with LPS (3H-thymidin capture); type: cell-based, murine
[2] = test system: RAW 264.7 macrophage line cells; assay: NO production by RAW 264.7 macrophage line cells stimulated with LPS (Greiss test); type: cell-based
Method: Upon completion of incubation, the culture medium in all wells of the plate was replaced with 0.25 ml of fresh medium. […] Polymixin B (Calbiochem) (PMB) in the same concentrations was used as the positive control of the inhibition of the LPS effect. The prepared mixture was then added at 0.25 ml increments to the wells of the culture plate at least in two parallel experiments. A mixture of LPS and the culture medium was added to the control wells. The cells were cultivated for 24 hrs. in a CO2 incubator. NO production was measured based on the total nitrite level in the culture medium in the Greiss test by using a commercial reagent (Sigma) according to the manufacturer's specifications.

HN2—(CH2)10—CO-Ile-Leu-Pro-D-Phe-Lys-D-Phe-Pro-D-Phe-D-Phe-Pro-D-Phe-Arg-Arg-NH2
spontaneous proliferation of spleen cells (captured 3H-thymidin) (spleen cells; peptide 0.08 μg/ml): 2439 ± 526 imp/min | spontaneous proliferation of spleen cells (captured 3H-thymidin) (spleen cells; peptide 0.4 μg/ml): 1791 ± 219 imp/min | spontaneous proliferation of spleen cells (captured 3H-thymidin) (spleen cells; peptide 2 μg/ml): 1225 ± 474 imp/min | spontaneous proliferation of spleen cells (captured 3H-thymidin) (spleen cells; peptide 10 μg/ml): 1174 ± 282 imp/min | spontaneous proliferation of thymus cells (captured 3H-thymidin) (thymus cells; peptide 0.08 μg/ml): 273 ± 75 imp/min | spontaneous proliferation of thymus cells (captured 3H-thymidin) (thymus cells; peptide 0.4 μg/ml): 321 ± 57 imp/min | spontaneous proliferation of thymus cells (captured 3H-thymidin) (thymus cells; peptide 2 μg/ml): 249 ± 50 imp/min | spontaneous proliferation of thymus cells (captured 3H-thymidin) (thymus cells; peptide 10 μg/ml): 211 ± 57 imp/min | effect on splenocyte proliferation stimulated with lipopolysaccharide (in words) ([1]; 0.4-2.0 μg/ml doses): inhibited the LPS effect | proliferation of spleen cells stimulated with LPS (captured 3H-thymidin) ([1]; LPS 0.02 μg/ml, peptide 0.08 μg/ml): 4827 ± 1013 imp/min | proliferation of spleen cells stimulated with LPS (captured 3H-thymidin) ([1]; LPS 0.02 μg/ml, peptide 0.4 μg/ml): 4008 ± 524 imp/min | proliferation of spleen cells stimulated with LPS (captured 3H-thymidin) ([1]; LPS 0.02 μg/ml, peptide 2 μg/ml): 3970 ± 936 imp/min | proliferation of spleen cells stimulated with LPS (captured 3H-thymidin) ([1]; LPS 0.2 μg/ml, peptide 0.08 μg/ml): 17121 ± 2647 imp/min | proliferation of spleen cells stimulated with LPS (captured 3H-thymidin) ([1]; LPS 0.2 μg/ml, peptide 0.4 μg/ml): 13289 ± 997 imp/min | proliferation of spleen cells stimulated with LPS (captured 3H-thymidin) ([1]; LPS 0.2 μg/ml, peptide 2 μg/ml): 10389 ± 613 imp/min | effect on NO production stimulated by LPS (in words) ([2]; 10-0.4 μg/ml doses): inhibited the NO production | NO production inhibition ([2]; stimulated with 0.04 ml of LPS, peptide 0.4 μg/ml): 16% | NO production inhibition ([2]; stimulated with 0.04 ml of LPS, peptide 2 μg/ml): 52% | NO production inhibition ([2]; stimulated with 0.04 ml of LPS, peptide 10 μg/ml): 94% | NO production inhibition ([2]; stimulated with 0.2 ml of LPS, peptide 0.4 μg/ml): 2% | NO production inhibition ([2]; stimulated with 0.2 ml of LPS, peptide 2 μg/ml): 23% | NO production inhibition ([2]; stimulated with 0.2 ml of LPS, peptide 10 μg/ml): 84%
